In PMC3921447, “Homologous and heterologous desensitization of guanylyl cyclase-B signaling in GH3 somatolactotropes” (Cell and Tissue Research, 2013):

Key:
GC-A [1] = biological target: T1, GC-A (Rattus norvegicus, UniProt P18910); test: ANP-stimulated total cGMP accumulation in GH3 cells, concentration-response; assay type: cell-based; settings: 15 min, 1 mM IBMX
T1 construct: Evidence of homologous desensitization of endogenous GC-A- and GC-B-mediated signaling in GH3 cells; endogenous in cells; host or cells: GH3 rat somatolactotrope cells
T1 sequence (P18910 29-1057): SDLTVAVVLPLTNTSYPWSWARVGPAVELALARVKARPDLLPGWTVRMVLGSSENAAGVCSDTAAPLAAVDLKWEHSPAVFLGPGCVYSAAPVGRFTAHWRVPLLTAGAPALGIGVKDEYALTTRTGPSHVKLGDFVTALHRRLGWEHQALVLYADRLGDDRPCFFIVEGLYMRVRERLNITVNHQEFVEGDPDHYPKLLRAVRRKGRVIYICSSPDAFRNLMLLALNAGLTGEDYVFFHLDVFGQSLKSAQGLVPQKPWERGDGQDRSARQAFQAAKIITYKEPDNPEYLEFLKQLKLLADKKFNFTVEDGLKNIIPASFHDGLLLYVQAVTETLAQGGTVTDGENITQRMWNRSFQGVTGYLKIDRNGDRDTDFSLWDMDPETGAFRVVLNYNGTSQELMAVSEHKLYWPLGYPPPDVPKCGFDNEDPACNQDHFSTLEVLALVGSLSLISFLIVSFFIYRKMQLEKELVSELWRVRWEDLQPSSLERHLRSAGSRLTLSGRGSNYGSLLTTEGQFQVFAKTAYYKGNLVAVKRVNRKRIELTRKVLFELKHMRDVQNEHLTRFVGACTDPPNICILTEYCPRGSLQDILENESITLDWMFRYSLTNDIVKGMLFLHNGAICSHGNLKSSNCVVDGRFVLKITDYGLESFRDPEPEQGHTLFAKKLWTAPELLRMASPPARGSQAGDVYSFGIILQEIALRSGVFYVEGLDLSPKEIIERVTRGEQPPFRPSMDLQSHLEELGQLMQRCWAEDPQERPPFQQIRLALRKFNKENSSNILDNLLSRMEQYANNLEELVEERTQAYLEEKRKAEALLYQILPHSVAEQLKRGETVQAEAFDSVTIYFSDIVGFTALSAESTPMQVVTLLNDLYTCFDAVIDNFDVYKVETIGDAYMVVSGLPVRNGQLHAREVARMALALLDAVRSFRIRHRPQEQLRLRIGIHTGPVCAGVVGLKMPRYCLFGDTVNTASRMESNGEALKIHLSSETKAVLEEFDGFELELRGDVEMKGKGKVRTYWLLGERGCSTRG

GC-A and GC-B receptors = settings: prolonged exposure; ref Fan et al. [2005]; Dickey et al. [2011]; cited from earlier work
Excerpt: Pharmacological regulation of the GC-B receptor has been elegantly described through many studies by Potter and Hunter ([1998a], [1999]) who have shown that dephosphorylation of specific serine and threonine residues of the GC-B receptor leads to rapid homologous desensitization. In keeping with the extensive literature describing the regulation of GC-A receptors (Potter et al. [2006]), enhancement of protein kinase C (PKC) activity leads to heterologous desensitization (Potter and Hunter [2000]).

GC-A [2] = biological target: T1, GC-A; test: Effect of natriuretic peptide pre-treatment on ANP-stimulated (GC-A) cGMP accumulation in GH3 cells; assay type: cell-based; settings: Fig. 3b
Experimental: Having established that GC-B signaling but not that of GC-A receptors, underwent rapid homologous desensitization, we next examined the effect of prolonged exposure of each receptor to its specific ligand. GH3 cells pre-treated with either ANP or CNP for 0 (control) to 6 h reduced the response to a subsequent 15-min treatment of ANP or CNP (with IBMX). […] The amount of cGMP measured from the 15-min pre-treatment sample was reduced by 39.6 ± 0.002 % (***P < 0.001). This effect was maintained up to the 6-h pre-treatment with CNP, which was reduced by 37.9 ± 7.1 % compared with the control (***P < 0.001).
Fig. 3 Effect of chronic exposure to CNP and ANP on GC-B- and GC-A-dependent cGMP accumulation in GH3 cells. Cells were initially treated with (a) 100 nM CNP or (b) 100 nM ANP in PSS without IBMX for 0 to 6 h. The medium was removed and replaced with 100 nM CNP (a) or 100 nM ANP (b) for 15 min in the presence of 1 mM IBMX. […]
In similar experiments designed to examine the effect of ANP pre-exposure to GC-A activity, a significant reduction in cGMP accumulation was observed within 30 min of ANP pre-treatment (by 28.9 ± 3.1 % compared with the control, *P < 0.05). […] In order to test the receptor specificity of the observed down-regulation of GC-B upon pre-treatment with CNP and of GC-A upon pre-treatment with ANP, the effects of ANP on GC-B and CNP on GC-A desensitization were determined. […]

In the case of `CC[C@H](C)[C@@H]1NC(=O)[C@H](CCCNC(=N)N)NC(=O)[C@H](CC(=O)O)NC(=O)[C@H]([C@@H](C)CC)NC(=O)[C@H](CCCNC(=N)N)NC(=O)CNC(=O)CNC(=O)[C@H](Cc2ccccc2)NC(=O)[C@@H](NC(=O)[C@H](CO)NC(=O)[C@H](CO)NC(=O)[C@H](CCCNC(=N)N)NC(=O)[C@H](CCCNC(=N)N)NC(=O)[C@H](CC(C)C)NC(=O)[C@@H](N)CO)CSSC[C@@H](C(=O)N[C@@H](CC(N)=O)C(=O)N[C@@H](CO)C(=O)N[C@@H](Cc2ccccc2)C(=O)N[C@@H](CCCNC(=N)N)C(=O)N[C@@H](Cc2ccc(O)cc2)C(=O)O)NC(=O)CNC(=O)[C@H](CC(C)C)NC(=O)CNC(=O)[C@H](CO)NC(=O)[C@H](CCC(N)=O)NC(=O)[C@H](C)NC(=O)CNC1=O` [ANP, atrial natriuretic peptide], the “maximal cGMP response relative to CNP” value (GC-A [1]) is given as “almost twice that of CNP”, the agonist-induced internalization (GC-A and GC-B receptors) is given as “does not appear to cause agonist-induced internalization” and the “reduction of ANP-stimulated cGMP vs control, 15-min pre-treatment” value (GC-A [2]; 100 nM ANP pre-treatment 15 min, then 100 nM ANP 15 min with 1 mM IBMX, ns, P > 0.05) is given as “did not show a significant reduction in cGMP accumulation compared with the control”. For the same compound, the “duration of the inhibitory effect on ANP-stimulated cGMP” value (GC-A [2]; 100 nM ANP pre-treatment 30 min to 6 h, *P < 0.05) was “maintained throughout the 6-h pre-treatment”.
